Results taken from paper PMC2254147, “Novel Triazine JPC-2067-B Inhibits Toxoplasma gondii In Vitro and In Vivo” (PLoS Neglected Tropical Diseases, 2008).

Chains of the proteins cited; added tags and fusions are not shown.
UniProt Q8I1R6, entry or part of it: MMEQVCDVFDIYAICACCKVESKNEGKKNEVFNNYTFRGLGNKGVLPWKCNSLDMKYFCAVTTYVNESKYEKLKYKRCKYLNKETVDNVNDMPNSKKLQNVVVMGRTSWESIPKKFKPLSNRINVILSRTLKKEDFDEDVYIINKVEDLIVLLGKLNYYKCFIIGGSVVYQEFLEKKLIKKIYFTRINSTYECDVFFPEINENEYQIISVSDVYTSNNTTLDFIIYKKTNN

Biological target: PfDHFR (Plasmodium falciparum, UniProt Q8I1R6)
Assay: Plate reader DHFR assay, recombinant P. falciparum DHFR
Type: biochemical
Text: DHFR from T. gondii prepared as above was also directly compared to purified recombinant P. falciparum DHFR (pfDHFR) and purified recombinant human DHFR (hDHFR). The hDHFR was from pDFR plasmid. The enzyme was purified following ammonium sulfate precipitation, methotrexate:agarose affinity chromatography, and finally a Superdex 200 size exclusion column. The pfDHFR isolation methods were those reported previously,[44]. […] The same buffer as used in the other assays comparing T. gondii DHFR with DHFRs from rat liver P. carinii and M. avium intracellulare was used but the maximal activity, temperature, and length of observation were adjusted for assays on the specific plate reader. […] The reaction was setup at 23°C, the plate loaded, and the OD340 recorded at 20 second intervals for 10 minutes. The first 8 minutes were used to generate linear fit slopes in Excel. […] Results are expressed as the percent of control activity versus log concentration of inhibitor. Prism 5.0 was used to generate curves from 12 different concentrations of inhibitor using a non-linear fit method.

CCc1nc(N)nc(N)c1-c1ccc(Cl)cc1 [JPC-1090-A-1, Pyrimethamine]
IC50 (IC50 for P. falciparum DHFR, text to Figure 5 and Table 2): 0.042 µM | IC50 (PfDHFR IC50, recombinant, 23°C, (95% Confidence Intervals)): 0.0422 µM
